Values of other authors, collected in article PMC10363981, “Optimizing the enzymatic release of MMAE from isoDGR-based small molecule drug conjugate by incorporation of a GPLG-PABC enzymatically cleavable linker” (Frontiers in Pharmacology, 2023).

Test system: U87MG human glioblastoma cancer cell lines
Conditions: ref Dias et al., 2019, cited from earlier work

Q: For “cyclo[DKP-isoDGR]-PEG4-VA-PABC-MMAE (head to tail) [compound 1]”, which “loss of potency of the conjugate compared to the free drug” value (U87MG) is on record?
A: The value was “two orders of magnitude”.

Q: What about the “IC50 on U87MG human glioblastoma cancer cell lines” value of the same substance?
A: The value was “low nanomolar”.
